# Antibody variant affinities, Ab-95 light chain, assay 2

Source: Engelhart et al. 2022 (doi:10.1038/s41597-022-01779-4), MIT Lincoln Laboratory and A-Alpha Bio; data file from the FLAb repository.

The target is the same throughout: PDVDLGDISGINAS, from the HR2 region of SARS-CoV-2 spike.

Ab-95 is the parent antibody, in scFv form: VH, then the linker GGGGSGGGGSGGGGS, then VL. The heavy chain is unchanged in all variants.
VH: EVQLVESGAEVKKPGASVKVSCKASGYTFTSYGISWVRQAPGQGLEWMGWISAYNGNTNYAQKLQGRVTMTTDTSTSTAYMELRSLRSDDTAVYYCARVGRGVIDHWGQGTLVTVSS
VL: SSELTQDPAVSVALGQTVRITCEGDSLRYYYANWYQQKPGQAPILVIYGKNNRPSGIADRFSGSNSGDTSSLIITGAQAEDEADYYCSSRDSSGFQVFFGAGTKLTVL

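The library (AAYL52) carries one to three amino acid substitutions per variant, with no insertions or deletions. In AlphaSeq, yeast of one mating type display the scFv and yeast of the other type display the target. Mating (16 h, 30 °C) was followed by selection of diploids and sequencing of their barcodes. Scores were corrected for input abundance and mapped to Kd with protein pairs of known affinity run in the same pool. The assay was run in three technical replicates.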

Positions count from residue 1 of the parent VL; D25V puts V in place of D. Kd is apparent (estimated from mating counts) and averaged on the log scale over replicates with a signal. Smaller is tighter. An entry "nd" has no value in the source: the pair was not observed among the diploids in any replicate. This suggests poor binding but is not conclusive.

| # | changes | Kd | replicates with signal |
|---|---|---|---|
| 1 | D25V Y30C A32Q | 5.8 µM | 1 of 3 |
| 2 | S55L F98K | 260 nM | 3 of 3 |
| 3 | R28I P54T R90M | 24 µM | 1 of 3 |
| 4 | R28F N33A | 14 µM | 1 of 3 |
| 5 | N52R S55T F95M | 4.1 µM | 3 of 3 |
| 6 | L27I Q96L | 7.8 µM | 3 of 3 |
| 7 | E23W N33A F95T | nd | 0 of 3 |
| 8 | L27M D91E | 1.5 µM | 2 of 3 |
| 9 | G24K Y29A | 350 nM | 3 of 3 |
| 10 | Y29G S92M | 14 nM | 3 of 3 |
| 11 | N52V G94Y Q96G | 260 nM | 3 of 3 |
| 12 | L27E N52R D91M | 8.8 µM | 3 of 3 |
| 13 | A32S G49V | 200 µM | 1 of 3 |
| 14 | S26N S55G S92D | 130 nM | 3 of 3 |
| 15 | G49E S93F | 5.6 µM | 2 of 3 |
| 16 | S89T S92E G94C | 3.5 µM | 3 of 3 |
| 17 | E23P L27C | 19 µM | 2 of 3 |
| 18 | D25L S26Y P54M | 3.7 µM | 1 of 3 |
| 19 | G24R R28W G94K | nd | 0 of 3 |
| 20 | Y29A R53S Q96P | 1.8 µM | 2 of 3 |
| 21 | Y31M S93A | 53 nM | 3 of 3 |
| 22 | R53A R90A G94Y | 8.9 µM | 2 of 3 |
| 23 | E23P A32R P54W | 2.5 µM | 1 of 3 |
| 24 | E23A S89I Q96F | 320 nM | 3 of 3 |
| 25 | N33C S88A F98E | nd | 0 of 3 |
| 26 | E23M R28F S55V | 930 nM | 3 of 3 |
| 27 | S26T S89Y V97N | 640 nM | 3 of 3 |
| 28 | Y29M S88Y | 970 nM | 3 of 3 |
| 29 | N33I S55M S92H | nd | 0 of 3 |
| 30 | Y31C N52G S55A | 130 nM | 3 of 3 |
| 31 | G49E S89W Q96M | 42 µM | 3 of 3 |
| 32 | Y31S N51I S92N | 6.7 µM | 2 of 3 |
| 33 | L27T S55I S88Y | 12 µM | 3 of 3 |
| 34 | Y30R K50D Q96N | 4.9 nM | 3 of 3 |
| 35 | Y30P Y31V K50L | 110 nM | 3 of 3 |
| 36 | Y31L A32W | 1.1 µM | 2 of 3 |
| 37 | G24F L27P Q96P | nd | 0 of 3 |
| 38 | S92H F95I Q96S | nd | 0 of 3 |
| 39 | R28T G49I S55K | 14 µM | 2 of 3 |
| 40 | R28N R90C V97E | 410 nM | 3 of 3 |
| 41 | R53S F95P | 7.6 µM | 2 of 3 |
| 42 | N33E R90M F98S | nd | 0 of 3 |
| 43 | D25H R28V N51T | 79 nM | 3 of 3 |
| 44 | Y29N N51I F95R | 600 nM | 3 of 3 |
| 45 | G49D N51I D91E | 7.1 µM | 3 of 3 |
| 46 | E23A Q96G F98A | 8.5 µM | 1 of 3 |
| 47 | P54S S89D V97C | 62 µM | 2 of 3 |
| 48 | N52G P54I S89P | 13 µM | 2 of 3 |
| 49 | G94I Q96N | nd | 0 of 3 |
| 50 | N33V G49K S92H | 15 µM | 2 of 3 |
| 51 | Y29S N33R S93G | 14 µM | 1 of 3 |
| 52 | L27I N52Q G94D | 9.3 µM | 1 of 3 |
| 53 | R28M Y30Q P54D | 6.5 nM | 3 of 3 |
| 54 | K50W D91V V97F | nd | 0 of 3 |

The opening 7 entries, copied out:

{"changes": "D25V Y30C A32Q", "Kd": "5.8 µM", "replicates with signal": "1 of 3"}
{"changes": "S55L F98K", "Kd": "260 nM", "replicates with signal": "3 of 3"}
{"changes": "R28I P54T R90M", "Kd": "24 µM", "replicates with signal": "1 of 3"}
{"changes": "R28F N33A", "Kd": "14 µM", "replicates with signal": "1 of 3"}
{"changes": "N52R S55T F95M", "Kd": "4.1 µM", "replicates with signal": "3 of 3"}
{"changes": "L27I Q96L", "Kd": "7.8 µM", "replicates with signal": "3 of 3"}
{"changes": "E23W N33A F95T", "Kd": "nd", "replicates with signal": "0 of 3"}

Empty control strains, which show no peptide, gave a signal in 28% of pairings with library AAYL52; the median was 8.2 µM and 95% of these signals were weaker than 800 nM. No background was subtracted. For reference, the parent read 200 nM as the reference entry and 180 nM as a member of this library.